Results on one substance are retold here after patent publication US20070111328A1, “Scintillation proximity assay for the identification of P-glycoprotein modulators” (priority 2005, published 2007).

Amino acid sequences for entries named in this document (tags omitted).
UniProt P08183, whole entry: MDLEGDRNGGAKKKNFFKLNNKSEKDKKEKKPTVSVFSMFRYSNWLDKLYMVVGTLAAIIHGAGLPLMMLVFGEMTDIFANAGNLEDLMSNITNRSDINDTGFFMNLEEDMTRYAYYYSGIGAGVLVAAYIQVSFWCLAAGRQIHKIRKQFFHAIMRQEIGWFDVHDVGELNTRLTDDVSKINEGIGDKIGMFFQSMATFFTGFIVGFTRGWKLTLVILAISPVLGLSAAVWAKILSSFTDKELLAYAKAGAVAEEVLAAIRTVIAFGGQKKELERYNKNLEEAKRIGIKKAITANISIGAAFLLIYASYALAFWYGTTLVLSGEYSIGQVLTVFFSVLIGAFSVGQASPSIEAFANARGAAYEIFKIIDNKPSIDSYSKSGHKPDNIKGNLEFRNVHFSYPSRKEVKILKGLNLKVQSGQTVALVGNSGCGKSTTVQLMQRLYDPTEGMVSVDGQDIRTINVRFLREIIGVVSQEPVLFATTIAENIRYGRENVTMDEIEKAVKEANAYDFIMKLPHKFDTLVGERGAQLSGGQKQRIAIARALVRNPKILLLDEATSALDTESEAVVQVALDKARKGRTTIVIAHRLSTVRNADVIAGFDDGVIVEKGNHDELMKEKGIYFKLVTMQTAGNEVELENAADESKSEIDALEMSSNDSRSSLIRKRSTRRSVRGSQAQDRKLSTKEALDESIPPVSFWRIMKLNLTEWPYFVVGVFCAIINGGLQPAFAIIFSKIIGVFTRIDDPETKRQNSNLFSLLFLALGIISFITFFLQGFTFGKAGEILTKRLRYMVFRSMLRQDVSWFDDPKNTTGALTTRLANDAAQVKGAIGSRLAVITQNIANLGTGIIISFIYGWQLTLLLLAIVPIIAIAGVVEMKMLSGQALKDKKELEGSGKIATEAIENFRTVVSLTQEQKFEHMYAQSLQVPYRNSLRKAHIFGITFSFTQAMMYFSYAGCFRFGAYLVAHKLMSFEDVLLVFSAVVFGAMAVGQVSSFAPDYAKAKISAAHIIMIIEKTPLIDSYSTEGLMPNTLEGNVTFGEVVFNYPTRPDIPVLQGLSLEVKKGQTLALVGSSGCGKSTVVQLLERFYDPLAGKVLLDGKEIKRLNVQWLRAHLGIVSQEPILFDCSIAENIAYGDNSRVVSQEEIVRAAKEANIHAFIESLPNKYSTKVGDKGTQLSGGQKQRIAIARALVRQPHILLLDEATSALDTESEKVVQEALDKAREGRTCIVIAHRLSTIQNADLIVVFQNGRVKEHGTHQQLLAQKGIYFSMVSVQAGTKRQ

For this data set, the target named is P-glycoprotein (P-gp) (Homo sapiens, UniProt P08183). The experiment in a line: Scintillation proximity assay (SPA): competition with [3H]vinblastine binding to P-gp in KB-V1 cell membranes. Conditions: test compound 10 μM final concentration; FIG. 8; mean of triplicates. Background: In a scintillation proximity assay essentially only radioactivity close to the scintillant gives light.

For the substance Ivermectin, the “effect of test compound on P-gp specific binding signal” value was “strongly inhibited”.
